Test results: US20120207856A1, “MSH3 Expression Status Determines the Responsiveness of Cancer Cells to the Chemotherapeutic Treatment with PARP Inhibitors and Platinum Drugs” (Baylor Research Institute, priority 2011, published 2012)

Test system: HCT116+3+5 and G5 cells
Assay: Clonogenic survival after MLH1 siRNA transfection
Assay type: cell-based, human
Conditions: HCT116+3+5 and G5 transfected with MLH1 siRNA versus untreated control cell lines; FIG. 4B

N-Methyl-N-Nitro-N-Nitrosoguanidine
resistance (clonogenic survival): more resistant
